Measurements reported in US6713266B1 (Isodiagnostika Inc., priority 1998, dated 2004).

How the values were obtained:
[1] = tested on: Mouse polyclonal sera (AM19-1-DVS (1) - KLH immunogen); assay: Inhibition ELISA, AM19-1-DVS (1) HSA coated plate, mouse polyclonal sera; type: binding
Method: (§1) Inhibition ELISA Protocol:
(§2) 1. Use Falcon Pro-bind immunoplates.
(§3) 2. Dilute coating antigen to 1 μg/mL in carbonate-bicarbonate buffer. Add 100 μL per well and incubate overnight at 4° C.
(§4) 3. On the same day prepare inhibiting antigen tubes. Aliquot antibodies into glass test tubes. Prepare appropriate antigen concentration in ethanol and add to aliquoted antibody at 10 μL ethanol solution/250 μL antibody. Vortex tubes and incubate overnight at 4° C.
(§5) 4. Shake out wells and wash 3× with 200 μL PBS/0.05% TWEEN™ (polyoxyethylene-sorbitol) (v/v) per well.
(§6) 5. Add 200 μL blocking buffer per well (PBS/2% BSA (w/v)). Incubate 60 min at room temperature.
(§7) 7. Transfer contents of inhibition tubes to antigen-coated plate, 100 μL per well. Incubate 60 min at 37° C.
(§8) 9. […] Add 100 μL per well and incubate at 37° C. for 60 min.
(§9) 11. […] Add 100 μL per well and incubate in the dark at room temperature. Absorbance can be read at 405 nm at approximately 15-min intervals.

[2] = tested on: Mouse polyclonal sera (AM19-9-DVS-KLH immunogen); assay: Inhibition ELISA, AM19-9-DVS-HSA coated plates, mouse polyclonal sera; type: binding
Method: as §1, §2, §3, §4, §5, §6, §7, §8, §9

[3] = tested on: Mouse polyclonal sera (AM9-9-DVS-KLH immunogen); assay: Antigen panel (direct) ELISA, mouse polyclonal sera; type: binding; settings: for Percent reactivity: OD to test antigen/ OD to AM19-9-DVS-HSA × 100; for OD: coated test antigen
[4] = tested on: MoAb CSA-1H6; assay: Inhibition ELISA to the CSA-DVS-HSA conjugate, MoAb; type: binding, mouse
Method: as §1, §2, §3, §4, §5, §6, §7
(§10) 9. Dilute alkaline phosphatase conjugated anti-mouse IgG (Pierce cat#31322) in PBS/0.1% TWEEN™ (polyoxyethylene-sorbitol) (v/v) to 1:5000 concentration. Add 100 μL per well and incubate at 37° C. for 60 min.
as §9

[5] = tested on: MoAb CSA-2G9; assay: as above; type: binding, mouse
Method: as §1, §2, §3, §4, §5, §6, §7, §10, §9

[6] = tested on: Mouse monoclonal antibody AM1-2E10; assay: Antigen panel (direct) ELISA, MoAb tissue culture supernatant; type: binding
[7] = tested on: Mouse monoclonal antibody AM1-7F5; assay: as above; type: binding
[8] = tested on: MoAb AM1-2E10; assay: Inhibition ELISA to the CSA-DVS-HSA conjugate, MoAb; type: binding, mouse
Method: as §1, §2, §3, §4, §5, §6, §7, §8, §9

[9] = tested on: MoAb AM1-7F5; assay: as above; type: binding, mouse
Method: as §1, §2, §3, §4, §5, §6, §7, §8, §9

[10] = tested on: Mouse monoclonal antibody AM19-1-7E12-1; assay: Antigen panel (direct) ELISA, MoAb tissue culture supernatant; type: binding
[11] = tested on: Mouse monoclonal antibody AM19-1-7E12-2; assay: as above; type: binding
[12] = tested on: MoAb AM19-1-7E12-1; assay: Inhibition ELISA with AM19-1-DVS (1) coated ELISA plates, MoAb; type: binding, mouse; settings: AM19-1-7E12-1 TCS
Method: as §1, §2, §3, §4, §5, §6, §7, §8, §9

[13] = tested on: MoAb AM19-1-7E12-2; assay: as above; type: binding, mouse; settings: AM19-1-7F12-2
Method: as §1, §2, §3, §4, §5, §6, §7, §8, §9

For “HSA: human serum albumin, protein carrier”, the “Percent Inhibition” value ([1]; Mouse 1) was 0%, the “Percent Inhibition” value ([1]; Mouse 2) was 0% and the “Percent Inhibition” value ([2]; Mouse 5) was 0%. For the same substance, the “Percent Inhibition” value ([2]; Mouse 6) was 0%, the Percent reactivity ([3]; Mouse 1) was 0% and the OD ([3]; Mouse 1) was 0.001. For the same substance, the Percent reactivity ([3]; Mouse 2) was 9.7%, the OD ([3]; Mouse 2) was 0.060 and the Percent reactivity ([3]; Mouse 3) was 0%. The OD ([3]; Mouse 3) was 0, the “Percent Inhibition” value ([4]; CSA-1H6, Table 24, CSA, CSG and CSA derivative inhibitors) was 6.0% and the “Percent Inhibition of TCS” value ([4]; CSA-1H6 TCS, Table 16, CSA-DVS-HSA conjugate) was 0%. For the same substance, the “Percent Inhibition” value ([5]; CSA-2G9, Table 24, CSA, CSG and CSA derivative inhibitors) was 9.4%, the “Percent Inhibition of TCS” value ([5]; CSA-2G9 TCS, Table 16, CSA-DVS-HSA conjugate) was 1.5% and the Percent reactivity ([6]; AM1-2E10, OD to test antigen / OD to CSA-DVS-HSA × 100) was 0%. It also gave an OD ([6]; AM1-2E10 TCS, coated test antigen) of 0.006, a Percent reactivity ([7]; AM1-7F5, OD to test antigen / OD to CSA-DVS-HSA × 100) of 0% and an OD ([7]; AM1-7F5 TCS, coated test antigen) of 0. The “Percent Inhibition” value ([8]; AM1-2E10, Table 24, CSA, CSG and CSA derivative inhibitors) was 15.4%, the “Percent Inhibition of TCS” value ([8]; AM1-2E10 TCS, Table 18, CSA-DVS-HSA coated plate) was 0% and the “Percent Inhibition” value ([9]; AM1-7F5, Table 24, CSA, CSG and CSA derivative inhibitors) was 13.6%. The “Percent Inhibition of TCS” value ([9]; AM1-7F51, TCS, Table 18, CSA-DVS-HSA coated plate) was 16.1%, the Percent reactivity ([10]; AM19-1-7E12-1, OD to test antigen / OD to AM19-1-DVS (1)-HSA × 100) was 0% and the OD ([10]; AM19-1-7E12-1 TCS, coated test antigen) was 0.009. For the same substance, the Percent reactivity ([11]; AM19-1-7E12-2, OD to test antigen / OD to AM19-1-DVS (1)-HSA × 100) was 0%, the OD ([11]; AM19-1-7E12-2 TCS, coated test antigen) was 0 and the “Percent Inhibition of TCS” value [12] was 3.5%. For the same substance, the “Percent Inhibition of TCS” value [13] was 1.5%.
